Earlier results on three compounds are cited in patent US20250283018A1, “TOILET RIM BLOCKS WITH SCENT CHANGE” (SYMRISE AG, priority 2021, published 2025).

Setting [1] is: Table 3, components of POWER PLATIN.

Where two headings read alike, the source gives them in different places.

In the case of `CC(=O)OC1CCCCC1C(C)(C)C` (centres unmarked) [AGRUMEX LC], the log partition coefficient (logP) was 4.42 (Table 1, components of MARINA); 4.42 (Table 2, components of PEACH); 4.42 under setting [1].

As to `CCCCCC(=O)OCC` [ETHYLCAPRONAT], for the setting “Table 2, components of PEACH”, the log partition coefficient (logP) is given as 2.83.

In the case of `C=CCCC(=O)C(=C)C1CCCCC1` [PHARAONE 10% DPG], under setting [1], the lipophilicity (logP) was 4.56.
